The assay deals with human A3AR (Homo sapiens, UniProt P0DMS8). Kind of assay: High-content fluorescent ligand (CA200645) competition binding assay in live CHO CRE-SPAP cells expressing the A3AR. To be noted: for A3 pKi (Table S3): mean ± s.e.m; for % of CA200645 binding (% DMSO control): compounds tested at 1 mM, control 1% DMSO and 25 nM CA200645, asterisk = selected for further screening; for pKi at the adenosine A3 receptor (Table S2): mean ± s.e.m from 3 separate experiments.

Protein sequences, listed by entry. Tags and fused reporters are not part of them.
UniProt P0DMS8, whole entry: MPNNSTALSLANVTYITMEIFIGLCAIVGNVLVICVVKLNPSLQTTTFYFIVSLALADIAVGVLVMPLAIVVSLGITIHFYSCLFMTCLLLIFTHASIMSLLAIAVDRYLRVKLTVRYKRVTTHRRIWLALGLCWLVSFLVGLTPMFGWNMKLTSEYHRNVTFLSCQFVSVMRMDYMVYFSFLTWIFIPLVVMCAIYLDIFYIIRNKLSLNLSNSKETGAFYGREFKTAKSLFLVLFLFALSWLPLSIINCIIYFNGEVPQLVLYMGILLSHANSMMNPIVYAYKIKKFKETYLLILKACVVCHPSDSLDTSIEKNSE

Turning to `O=C(Nc1ccccc1-c1nc2ccccc2[nH]1)c1ccccc1`, the “A3 pKi (Table S3)” value is 6.27 ± 0.17. What is called pKi is the Ki on a negative log10 scale, so that one unit is a factor of ten. A higher pKi goes with a low Ki. For the compound `Nc1nc(-c2ccccc2)ns1`, the “% of CA200645 binding (% DMSO control)” value turned out to be 24.90% and the “pKi at the adenosine A3 receptor (Table S2)” value (from here on “pKi … (Table S2)”) stood at 5.02 ± 0.28. On to `CCCCCCNc1ccccc1-c1nc2ccccc2[nH]1`, for which the “A3 pKi (Table S3)” value came to 6.27 ± 0.05. Consider `OCc1cccc(-c2cncnc2)c1`, for which the “% of CA200645 binding (% DMSO control)” value is on record as 47.06% and the “pKi … (Table S2)” value is > 3.

Regarding `Cc1nc(-c2ccccc2)ncc1CO`, the “% of CA200645 binding (% DMSO control)” value was 21.54% and the “pKi … (Table S2)” value stood at 5.47 ± 0.09. For `CCOC(=O)c1sc(-c2ccccc2)nc1C` the same measures were 28.44% and 4.78 ± 0.34. `CNCc1ccc(-c2nccs2)cc1`: the “% of CA200645 binding (% DMSO control)” value turned out to be 32.45% and the “pKi … (Table S2)” value amounted to 4.61 ± 0.18.

`CC(=O)c1csc(-c2ccc(OC(F)(F)F)cc2)n1`: the “% of CA200645 binding (% DMSO control)” value turned out to be 27.22% and the “pKi … (Table S2)” value is given as 4.86 ± 0.50.

Turning to `Cc1nc(-c2ccccc2)sc1CO`, the “% of CA200645 binding (% DMSO control)” value came out at 21.34% and the “pKi … (Table S2)” value is 4.47 ± 0.50. Take `CCOC(=O)c1sc(C)nc1-c1ccccc1`: the “% of CA200645 binding (% DMSO control)” value was determined as 38.60% and the negative logarithm of the Ki (pKi) at the adenosine A3 receptor (Table S2) is > 3.
